Experimental data: patent US9938587B2 (priority 2011, dated 2018)

Columns and labels:
[1] = system: mPlum:T208C reporter plasmid; assay: O^6Methylguanine HCR with MNNG treated mPlum:T208C plasmid in TK6 cells; conditions: TK6 (MGMT-deficient), 500,000 cells analyzed, 16 hours post-transfection
[2] = system: fluorescent reporter plasmid; assay: HCR fluorescence assay of reporter plasmid treated with MNNG; conditions: plasmid treated 4 hours in 0.8 mM MNNG; 16 hours after transfection

In the case of N-methyl-N′-nitro-N nitrosoguanidine, the plum positive cells [1] is reported as “only a few hundred plum positive” and the “inhibition of transcription (reporter expression by flow cytometry)” value [2] is reported as “inhibition of transcription is not detected”.
